Measured values published in article PMC11564732, “Synthesis and preliminary cytotoxicity evaluation of water soluble pentacyclic triterpenoid phosphonates” (Scientific Reports, 2024).

Test: Water solubility determination by quantitative 1H-NMR in D2O
Assay type: physicochemical
Conditions: qNMR in D2O, pH 8.0-8.5 (NaOD), room temperature, potassium hydrogen phthalate external standard
Text: The obtained PCT-derived sodium phosphonates were subjected to water solubility tests (Table 3). For this purpose, we used a quantitative ^1H-NMR approach in D2O, using potassium hydrogen phthalate as an external standard (for experimental details see Supporting Information). The presence of the basic forms of phosphonates[80] was ensured by the careful addition of NaOD, maintaining pH 8.0–8.5 during the quantification, which is 2–3 units higher than the pKa of phosphonic acid disalt. […] This is by at least two to three orders of magnitude higher than the reported solubilities of the parent natural triterpenic acids. […] Indeed, phosphonic acids are more acidic and easier ionizable than carboxylic acids. This ionic character helps to increase the aqueous solubility as exemplified by here described compounds.
Water solubility determination
To suspension of PCT phosphonate sample (10 mg) in D2O (500 µL) 0.8% solution of NaOD in D2O was added dropwise until pH = 8-8.5 (<100 µL). Obtained suspension was sonified in ultrasonic bath for 10 min. Undissolved particles were separated by centrifugation. Clear D2O solution was carefully transferred to NMR tube equipped with external standard vial.
Formula (1) was used to determine the solubility of PCT sample in the D2O.
[…]
SolPCT - solubility of PCT sample in D2O at room temperature (mg/mL) […]

Sodium (3-oxo-(17R)-17-28-norlup-20(29)-en)-2-oxoethyl-phosphonate [7a]
Aqueous solubility in D2O at pH 8.0…8.5: 11 mg/mL
